Target: PARP2 L269A-mCherry (Homo sapiens, UniProt Q9UGN5, L282A)
Assay: Rescreen of PARP1 L713F stabilizers, PARP2 L269A-mCherry intensity
Assay type: cell-based
Settings: 10 μM, 16 h; hit = statistically significant (p < 0.05)

Chains of the proteins cited; added tags and fusions are not shown. Residues count along the entry.
UniProt Q9UGN5, 1-570 isoform 2 L269A: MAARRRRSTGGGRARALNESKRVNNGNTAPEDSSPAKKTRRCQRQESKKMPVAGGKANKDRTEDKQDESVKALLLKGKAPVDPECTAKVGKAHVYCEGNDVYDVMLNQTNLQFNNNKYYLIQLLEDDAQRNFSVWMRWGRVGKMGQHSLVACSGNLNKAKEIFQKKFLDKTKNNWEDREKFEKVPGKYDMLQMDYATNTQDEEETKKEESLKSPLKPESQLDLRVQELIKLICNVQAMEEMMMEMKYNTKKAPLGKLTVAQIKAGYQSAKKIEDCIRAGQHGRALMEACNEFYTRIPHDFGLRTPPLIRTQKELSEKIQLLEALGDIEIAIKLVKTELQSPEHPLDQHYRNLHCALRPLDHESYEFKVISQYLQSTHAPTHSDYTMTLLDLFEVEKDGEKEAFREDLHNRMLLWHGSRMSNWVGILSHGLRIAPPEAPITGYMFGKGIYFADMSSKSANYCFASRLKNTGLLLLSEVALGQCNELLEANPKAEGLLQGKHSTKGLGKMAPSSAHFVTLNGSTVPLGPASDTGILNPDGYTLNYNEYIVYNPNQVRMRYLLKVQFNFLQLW

O=c1[nH]c(SCCN2CCN(c3ccccn3)CC2)nc2ccccc12 [MC2050]
PARP2 L269A-mCherry abundance change versus DMSO control: except for MC2050 and MC3474

— publication PMC11986510, “Duplexed CeTEAM drug biosensors reveal determinants of PARP inhibitor selectivity in cells” (The Journal of Biological Chemistry, 2025)
